5 molecules from publication PMC3107989 can be followed below.

What all share (experiment): purified protein
The test system of one data set is Nc1cc[nH]c(=O)n1. As to conditions: pH 8.5, 30.0 °C.
For the next data set, the system named is O=c1cc[nH]c(=O)o1. To be noted: Zn2+; pH 8.5; 30.0 °C.
Substrate in data set [1]: Nc1cc[nH]c(=O)n1
As to conditions: Zn2+ active site; Gln-156 facilitates the binding of cytosine; pH 8.5; 30.0 °C.

Substrate in data set [2]: CN1CC(=O)NC1=N
As to conditions: Zn2+; pH 8.5; 30.0 °C.

Substrate in data set [3]: Nc1nccc(O)n1
To be noted: Zn2+; pH 8.5; 30.0 °C.

The term Km denotes the substrate concentration at which the rate is half of its maximum. The term kcat denotes the number of substrate molecules converted per active site and unit of time at saturation. One may read the kcat/Km as the turnover number divided by the Michaelis constant. “Cytosine deaminase (CDA) (Escherichia coli K-12; D314N)”: in the data set on Nc1cc[nH]c(=O)n1 (Zn2+), the Km was 1900 ± 200 µM, the turnover number (kcat) is 0.0075 s⁻¹ and the kcat/Km came out at 4 M⁻¹ s⁻¹.

In the case of “Cytosine deaminase (CDA) (Escherichia coli K-12; H247Q)”, in the data set with Nc1cc[nH]c(=O)n1 (Zn2+/Fe2+ ([…] Zn, […] Fe)), the Km came out at 250 ± 30 µM, the kcat came out at 0.18 s⁻¹ and the kcat/Km amounted to 720 M⁻¹ s⁻¹.

With “Cytosine deaminase (CDA) (Escherichia coli K-12; E218A)”, in the data set on O=c1cc[nH]c(=O)o1, the Km worked out at 850 ± 40 µM, the kcat was determined as 0.18 s⁻¹ and the catalytic efficiency (kcat/Km) came to 210 M⁻¹ s⁻¹.

For “Cytosine deaminase (CDA) (Escherichia coli K-12)”, in the data set on O=c1cc[nH]c(=O)o1, the Km came to 4100 ± 300 µM, the catalytic constant (kcat) turned out to be 2.3 s⁻¹ and the kcat/Km was 560 M⁻¹ s⁻¹.

B1: Cytosine deaminase (CDA) (Escherichia coli K-12) (protein)
chain: SNNALQTIINARLPGEEGLWQIHLQDGKISAIDAQSGVMPITENSLDAEQGLVIPPFVEPHIHLDTTQTAGQPNWNQSGTLFEGIERWAERKALLTHDDVKQRAWQTLKWQIANGIQHVRTHVDVSDATLTALKAMLEVKQEVAPWIDLQIVAFPQEGILSYPNGEALLEEALRLGADVVGAIPHFEFTREYGVESLHKTFALAQKYDRLIDVHCDEIDDEQSRFVETVAALAHHEGMGARVTASHTTAMHSYNGAYTSRLFRLLKMSGINFVANPLVNIHLQGRFDTYPKRRGITRVKEMLESGINVCFGHDDVFDPWYPLGTANMLQVLHMGLHVCQLMGYGQINDGLNLITHHSARTLNLQDYGIAAGNSANLIILPAENGFDALRRQVPVRYSVRGGKVIASTQPAQTTVYLEQPEAIDYKR
On to B1, for which, in “purified protein [1]”, the Km amounted to 970 ± 30 µM, the kcat amounted to 132 s⁻¹ and the kcat/Km worked out at 140000 M⁻¹ s⁻¹. In “purified protein [2]”, the Michaelis-Menten constant (Km) came to 25000 ± 4000 µM, the catalytic constant (kcat) worked out at 5.6 s⁻¹ and the specificity constant (kcat/Km) is 220 M⁻¹ s⁻¹. Moreover, in “purified protein [3]”, the Km came out at 460 ± 40 µM, the kcat was found to be 5.1 s⁻¹ and the catalytic efficiency (kcat/Km) was 11000 M⁻¹ s⁻¹.
